Measurements as given in patent US20080293070A1, “Markers for Memory T Cells and Uses Thereof” (priority 2005, published 2008).

Columns and labels:
pSTAT5a (Y694) = test: STAT5a phosphorylation in TCM and TEM in response to IL-2 or IL-7, flow cytometry; format: cell-based, human; conditions: IL-2 100 U/ml, 15 min
Description: FIG. 5. […] (A) PIM-1 and PIM-2 proteins levels in ex-vivo sorted TCM and TEM subsets. […] (B, C and D) PBMCs from healthy donors were treated with IL-2 (100 U/ml) or IL-7 (10 ng/ml) for 15 min at 37° C. Cells were then labeled with Abs to CD4, CD27, CCR7, CD45RA and pSTAT5a. (B) Representative example of pSTAT5a expression levels. TCM-gated cells are represented in light grey and TEM-gated cells are represented in black. (C) Mean Fluorescence Intensity (MFI) of pSTAT5a level of expression measured in response to IL-2 or IL-7, in TCM and TEM (n=4). Mean pSTAT5a signal values are represented by black bars. P-values (determined by a two-tailed T-test) are shown (D) Expression level of CD127, CD25 and CD132 in ex-vivo TCM and TEM. PBMCs were labeled with Abs to CD4, CD27, CCR7 and CD45RA to identify T cells subsets in conjunction with anti-CD127 or anti-CD25 specific Abs. […]
STAT5a is a downstream effector of yc cytokines (Nosaka, T. et al., 1999. Embo J 18:4754-4765). […] Because of the importance of the STAT5a pathway in the regulation of T-cell survival (Nosaka, T. et al., supra), we evaluated the ability of IL-2 and IL-7 to trigger the STAT5a signaling pathway in CD4^+ T cell memory subsets. The phosphorylated form of STAT5a (Y694) (pSTAT5a) was quantified by flow cytometry. […]

[1] = tested on: pFOXO3a (S253, S315 and T32); test: FOXO3a phosphorylation in CD4+ T cells in response to TCR and cytokine engagement, Western blot; format: cell-based, human; conditions: 30 min, IL-7 10 ng/ml, IL-2 100 U/ml
Description: FIG. 9. FOXO3a phosphorylation is induced by TCR and cytokine engagement. (A) CD4^+ T cells were cultured in the presence of anti-CD3 (2 μg/ml), anti-CD28 (2 μg/ml), anti-CD3+CD28, IL-2 (100 U/ml), IL-7 (10 ng/ml), IFN-γ (50 μg/ml) or PMA (50 ng/ml) for 15 min and analyzed by Western Blot for pFOXO3a (S315 and S253) expression levels. The results are representative of two independent experiments. (B) CD4^+ T cells were cultured in the presence of anti-CD3/anti-CD28, IL-2 (100 U/ml), IL-7 (10 ng/ml) for 30 min and analyzed by Western Blot for pFOXO3a (T32) expression levels.
Western Blotting analysis. TCM and TEM were sorted as described above. […] HRP activity was detected using an enhanced chemiluminescence detection procedure (ECL-plus detection system, Amersham Biosciences). […] Protein expression levels were expressed as a percentage of the highest signals obtained.
To identify the signals that trigger FOXO3a phosphorylation in CD4^+ T cells, we quantified the levels of pFOXO3a (S253, S315 and T32) in response to CD3 and/or CD28 cross-linking, as well as IL-2, IL-7, IFN-γ and PMA treatment. pFOXO3a (S253) was easily detectable in ex-vivo CD4^+ T cells, and none of the tested stimuli induced significant changes in the expression level of this phosphorylated form of FOXO3a (FIG. 9A). […]

## IL-2: Recombinant human IL-2
pSTAT5a (Y694); TCM
  proportion of cells showing phosphorylated STAT5a: 90-100% and 100%
pSTAT5a (Y694); TEM
  proportion of cells showing phosphorylated STAT5a: 50-60%
[1]
  levels of pFOXO3a at T32: No induction

Where “and” joins values, the source holds several entries; their conditions need not be identical. Equal values may be shown once.
